Reference: article PMC8530978 (Bioorganic chemistry, 2021)

System: HeLaM cells
Test: Phase contrast time lapse microscopy, mitotic duration
Type: cell-based
Details: asynchronous HeLaM cells, images every 12 min

SMILES: O=C(CCCCCCC(=O)Nc1ccccc1)NO [SAHA, reference compound]
- mitotic duration / mitotic arrest: 3 h
